In the assay the target is Proton Pump (H^+/K^+-ATPase) (Sus scrofa, UniProt P19156). Kind of assay: Inhibitory effects on proton pump (H^+/K^+-ATPase) activity. The settings on record: hog gastric vesicles; K^+ stimulated H^+/K^+-ATPase activity; 30 minutes at 37° C. Format: biochemical.

Amino acid sequences for entries named in this document (tags omitted).
UniProt P19156, whole entry, looked up: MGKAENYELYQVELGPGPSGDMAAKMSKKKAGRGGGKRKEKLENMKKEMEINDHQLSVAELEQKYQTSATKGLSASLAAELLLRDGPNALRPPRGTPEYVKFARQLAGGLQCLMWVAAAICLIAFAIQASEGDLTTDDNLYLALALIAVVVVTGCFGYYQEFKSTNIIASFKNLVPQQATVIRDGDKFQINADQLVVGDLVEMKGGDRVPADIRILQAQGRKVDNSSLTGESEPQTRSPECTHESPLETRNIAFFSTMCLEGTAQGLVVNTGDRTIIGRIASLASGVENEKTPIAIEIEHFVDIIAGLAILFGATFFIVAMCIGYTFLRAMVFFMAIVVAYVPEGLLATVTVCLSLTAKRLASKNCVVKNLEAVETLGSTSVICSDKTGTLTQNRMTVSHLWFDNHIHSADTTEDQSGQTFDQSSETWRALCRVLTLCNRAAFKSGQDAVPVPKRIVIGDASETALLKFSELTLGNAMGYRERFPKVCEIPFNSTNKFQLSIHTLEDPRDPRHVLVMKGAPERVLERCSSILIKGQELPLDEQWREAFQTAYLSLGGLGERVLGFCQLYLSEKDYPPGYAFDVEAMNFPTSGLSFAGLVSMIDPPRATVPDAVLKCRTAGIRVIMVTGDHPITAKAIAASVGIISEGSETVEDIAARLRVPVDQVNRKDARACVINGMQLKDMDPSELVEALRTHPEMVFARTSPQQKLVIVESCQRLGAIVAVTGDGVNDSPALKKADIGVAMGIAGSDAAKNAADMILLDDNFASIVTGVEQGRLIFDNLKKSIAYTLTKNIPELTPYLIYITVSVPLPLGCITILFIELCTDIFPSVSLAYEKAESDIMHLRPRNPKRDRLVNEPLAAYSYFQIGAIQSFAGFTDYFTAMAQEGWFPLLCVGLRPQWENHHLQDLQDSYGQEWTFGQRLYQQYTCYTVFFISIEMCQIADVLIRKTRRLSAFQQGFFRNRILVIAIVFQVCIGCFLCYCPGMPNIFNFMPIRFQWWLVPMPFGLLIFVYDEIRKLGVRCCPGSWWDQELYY

SMILES strings stand for the structures.

For `Cc1c(C)n(CCC(C)Cl)c2c(N(C)Cc3ccc(F)cc3)nccc12` (stereo not shown), the IC50 worked out at 110 nM.

For orientation: IC50 means the point on the concentration scale where inhibition reaches its midpoint. High values mean weaker potency, low ones greater potency.

Values taken from patent US7662832B2, “Pyrrolo[2,3-c]pyridine derivatives and processes for the preparation thereof” (priority 2004, dated 2010).
